Source: US9572881B2, “Halogenated compounds for photodynamic therapy” (Nanoquantum Sciences, Inc., priority 2012, dated 2017)

What was measured:
[1] = Absorption spectra and extinction coefficients of dyes; assay type: physicochemical
Procedure: Absorption spectra were measured at RT on a Perking Elmer Lambda 35 UV/Vis spectrophotometer. […] The stock solution was diluted (1:2000) and the absorbance was measured in a 5-cm standard quartz cell. All dye concentrations were in the range of 1.1 to 2.0×10^−7 M. The extinction coefficients were calculated according to Lambert-Beer's law.

bovine erythrocytes = experiment: Phototoxicity (glow lamp) and dark toxicity by hemolysis of bovine erythrocytes; assay type: cell-based
Procedure: Bovine erythrocytes were isolated from blood plasma stored with sodium citrate. 1 mL of bovine blood was treated at centrifuge (3,000 rpm) for 10 min to precipitate erythrocytes. The supernatant was decanted, 2 mL of physiological solution were added, treated and erythrocytes were precipitated with centrifuge. The washing procedure was repeated for 3 times and the precipitated erythrocytes were collected. […] Cells were dye-incubated for 45 minutes at 37° C. in the dark. Then the examined suspensions of cells (erythrocytes) were placed at a distance of 30-cm from a 250 W glow red-lamp equipped with a water-based heat filter and irradiated with occasional stirring. After irradiation, cells were stored at 4° C. for 15 hours. […] The hemolysis level (percentage of hemolyzed cells) was determined as the ratio of absorbances of the supernatant and a solution of 100% hemolysed cells. The 100% hemolysis was taken as the value obtained when the given number of erythrocytes were suspended in distilled water.

[2] = background statement; cited from earlier work

Absorption max. ([1]; Methanol): 784 nm
Absorption max. ([1]; Water): 780 nm
SMILES: CC1(C)C(/C=C/C=C/C=C/C=C2\N(CCCCS(=O)(=O)[O-])c3ccc4ccccc4c3C2(C)C)=[N+](CCCCS(=O)(=O)[O-])c2ccc3ccccc3c21.[Na+] [ICG, Indocyanine green, reference compound]
Hemolysis (bovine erythrocytes; Dark, 5 μM): 1.6%
Hemolysis (bovine erythrocytes; Dark, 10 μM): 1.7%
Hemolysis (bovine erythrocytes; Glow Lamp, 1 μM, exposure 120 min): 4%
Hemolysis (bovine erythrocytes; Glow Lamp, 5 μM, exposure 60 min): 16%
Hemolysis (bovine erythrocytes; Glow Lamp, 5 μM, exposure 120 min): 65%
absorb light at [2]: ~780 nm
